Reported vapor pressure values for industrial, environmental and drug-like chemicals

Values as listed in the OPERA 2.9 repository of K. Mansouri.

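OPERA's authors assembled the values from existing databases and did not measure them anew. A listed value is a point estimate from one report or more. Method, purity and exact conditions of the single measurements are not given. Where a salt, mixture or single isomer is drawn, the source does not say that exactly this form was tested. Some entries may be limits or estimates that an upstream database listed as plain numbers.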

Vapor pressures (log10 mmHg) refer to near room temperature, 15 to 30 °C; higher is more volatile.
"via" names the databases from which the curators took the value.

structure (SMILES) | vapor pressure (log10 mmHg) | via
CC(C)CC1CCC(CCC=O)CC1 (configuration not stated) | -1.727 | eChemPortal
CN1CCNCC1 | 0.772 | eChemPortal
Oc1cc2c(cc1O)[C@H]1c3ccc(O)c(O)c3OC[C@@]1(O)C2 | -6.619 | eChemPortal
CC(CC(=O)[O-])CC(C)(C)C.[Na+] (configuration not stated) | -8.745 | eChemPortal
C[Si](C)(c1ccccc1)[C@@H]1CC=C(CO)[C@H]1C(=O)O[C@@](O)(c1ccc([N+](=O)[O-])cc1)[C@@H](N)CO | -8.782 | eChemPortal
CC(C)N(C(=O)CO)c1ccc(F)cc1 | -3.137 | eChemPortal
CO[Si](CC(C)CC(C)(C)C)(OC)OC (configuration not stated) | -0.657 | eChemPortal
O=C1CCCCCCCCCCCN1 | -4.696 | eChemPortal
CCC(C)=CCCC(C)=CC#N | -1.894 | eChemPortal
CCCCC(O)C(N)CC (configuration not stated) | -1.52 | eChemPortal
CC1=CC[C@H](CC=O)C1(C)C | -0.824 | eChemPortal
C=COCCCN | 0.629 | eChemPortal
COC(F)(F)C(F)(F)C(F)F | 2.137 | ICF
C=CC(C)(O)C=CC1=C(C)CCCC1(C)C (configuration not stated) | -2.92 | eChemPortal
CC(CCN(CCC(C)CC(C)(C)C)C(=S)[S-])CC(C)(C)C.CC(CCN(CCC(C)CC(C)(C)C)C(=S)[S-])CC(C)(C)C.[Zn+2] (configuration not stated) | -5.195 | eChemPortal
COC(=O)C(C)(C)C#N | -0.243 | eChemPortal
CO[Si](CCCCCC[Si](OC)(OC)OC)(OC)OC | -3.216 | eChemPortal
Clc1cc(Cl)cc(-c2c(Cl)cc(Cl)c(Cl)c2Cl)c1 | -4.983 | OCHEM
CC(=O)Oc1cccc(OC(C)=O)c1 | -1.952 | eChemPortal
COC(=O)C1C(C)=CCCC1(C)C (configuration not stated) | -1.146 | eChemPortal
Brc1ccc(Oc2c(Br)c(Br)c(Br)c(Br)c2Br)cc1Br | -9.456 | OCHEM
Nc1ncnc2c1ncn2[C@@H]1O[C@H](COP(=O)(O)O)[C@@H](O)[C@H]1O | -4.281 | eChemPortal
CCCC1CC(=O)C=C(C)C1 (configuration not stated) | -1.358 | eChemPortal
CC(C)(C)c1n[nH]c(=O)n(N)c1=O | -7.714 | OCHEM
C=CC(F)(F)C(F)(F)C(F)(F)C(F)(F)C(F)(F)C(F)(F)C(F)(F)C(F)(F)F | -0.952 | 3M
CC(C)CCCCCCOC(=O)c1ccc(C(=O)OCCCCCCC(C)C)cc1 | -8.648 | eChemPortal
CN(C)CCCNCCCN | -1.648 | eChemPortal
C=C(C)C(=O)OCc1ccccc1 | -1.648 | eChemPortal
C=CCOc1ccc(S(=O)(=O)c2ccc(O)cc2)cc1 | -13.73 | eChemPortal
CCNc1nc(CC)c(C(=O)NC(C#N)c2cccs2)s1 (configuration not stated) | -6.216 | OCHEM
COc1cc(S(=O)(=O)Nc2ccccc2)c(OC)cc1N | -5.95 | eChemPortal
COc1ccc(CC(C)C=O)cc1 (configuration not stated) | -2.648 | eChemPortal
C=C[Si](OCCOC)(OCCOC)OCCOC | -2.487 | eChemPortal
C=CC(=O)OCC1COC(C)(CC)O1 (configuration not stated) | -1.292 | eChemPortal
Nc1ccc(S(N)(=O)=O)cc1 | -5.137 | OCHEM
OC1CSC(O)CS1 (configuration not stated) | -6.206 | eChemPortal
CCN(CCC(C)C)c1ccc2c(c1)Oc1cc(C)c(Nc3ccccc3)cc1C21OC(=O)c2ccccc21 (configuration not stated) | -7.161 | eChemPortal

Excerpt, the opening 6 entries:

{"smiles": "CC(C)CC1CCC(CCC=O)CC1", "stereo": "configuration not stated", "vapor pressure (log10 mmHg)": "-1.727", "via": "eChemPortal"}
{"smiles": "CN1CCNCC1", "vapor pressure (log10 mmHg)": "0.772", "via": "eChemPortal"}
{"smiles": "Oc1cc2c(cc1O)[C@H]1c3ccc(O)c(O)c3OC[C@@]1(O)C2", "vapor pressure (log10 mmHg)": "-6.619", "via": "eChemPortal"}
{"smiles": "CC(CC(=O)[O-])CC(C)(C)C.[Na+]", "stereo": "configuration not stated", "vapor pressure (log10 mmHg)": "-8.745", "via": "eChemPortal"}
{"smiles": "C[Si](C)(c1ccccc1)[C@@H]1CC=C(CO)[C@H]1C(=O)O[C@@](O)(c1ccc([N+](=O)[O-])cc1)[C@@H](N)CO", "vapor pressure (log10 mmHg)": "-8.782", "via": "eChemPortal"}
{"smiles": "CC(C)N(C(=O)CO)c1ccc(F)cc1", "vapor pressure (log10 mmHg)": "-3.137", "via": "eChemPortal"}